Experimental data taken from patent publication US20250177532A1, “TEMPERATURE-SENSITIVE HYDROGEL FOR CANCER TREATMENT CAPABLE OF PHOTOTHERMAL THERAPY AND PREPARATION METHOD THEREFOR” (KOREA NATIONAL UNIVERSITY OF TRANSPORTATION …, priority 2022, published 2025).

Test system: 4T1 cells
Details: different concentrations, 24 hours, no irradiation

## Cc1ccc2c(=O)c3cccc(CC(=O)O)c3oc2c1C [DMXAA, 5,6-dimethylxanthenone-4-acetic acid]
  biological toxicity to cells (WST-1 analysis): no remarkable biological toxicity
